Rows were chosen to be rich in hits. Some 1.8% of all compounds tested hit in one or more screens of this group.
MLL AF4-AF9 inh – inhibitors of human MLL-AF4/AF9 interaction; AlphaScreen, biotin-AF4 peptide binding to FLAG-AF9; inhibition, % at 10 µM; 0.47% of 350,000 active;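 active = every replicate reaching a set inhibition limit, whatever the replicate mean, cut at about 25% in these data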;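 also: 0% = plate neutral control median and 100% = total signal loss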
Yeast UUG start – modulators of start codon recognition fidelity in yeast | S. cerevisiae UUG-firefly luciferase reporter, luminescence/redox ratio | activity score, % at 18.7 µM | 350,000 tested, 0.13% active;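 active = replicate mean at a twofold rise or more, about +100% in these data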;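 also: firefly luciferase made from a UUG start codon reports start codon fidelity; reporter light over untreated wells divided by growth signal over untreated wells; some hits fall short of that in this replicate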
RAD54 inh – inhibitors of human RAD54 branch migration. Q92698. RAD54 Holliday junction branch migration, FAM/BHQ fluorescence. inhibition, % at 10.4 µM. 0.14% of 360,000 active. AID 602329;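 active = mean normalized replicate activity at least 40 and at least half of replicates scoring 40 or more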;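 also: 0% = median of neutral control wells and 100% = median of positive control wells; inhibitors cause a drop in the FAM fluorescence signal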
RAD52 inh – blocks human RAD52 DNA annealing; P43351; inhibition, % at 18.7 µM; 0.46% of 360,000 active; recombinant RAD52 DNA annealing, FRET fluorescence;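 active = every replicate showing at least 50% inhibition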
SIRT5 block – sirtuin-5 (human) deacylase inhibition. Q9NXA8. 1.1% of 330,000 active. Purified SirT5, succinyl-peptide AMC, trypsin-coupled fluorescence. inhibition, % at 15 µM. AID 652115; in the data active = inhibition above about 15%
E-selectin induc – E-selectin induction on HUVECs | 0.37% of 260,000 active | HUVEC E-selectin immunofluorescence imaging; normalized: neutral wells 0, TNF-alpha wells 100 | activation, % at 7.58 µM | AID 686992 | P16581;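 active = mean E-selectin-positive cell signal at least 10% of the positive control, reached in at least 60% of replicates, without over 20% cell loss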
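Read-out: % PE-positive cells | Test system: HUVEC | Doses: One compound dose added by pin transfer | Buffer or medium: EGM-2 over gelatin coat | Signal: Immunofluorescence imaging | Benchmarks: TNF-alpha, DMSO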
* hit, by the source's call; nt = no result; ! = repeats disagree.

Order of results: RAD54 inh, Yeast UUG start, MLL AF4-AF9 inh, RAD52 inh, SIRT5 block, E-selectin induc
Cc1cccc(S(=O)(=O)N2C[C@@H]3N[C@H](C2)C3c2ccc(-c3cccc(C#N)c3)cc2)c1 (stereo not given in full)
→ nt, nt, -1, 54*!, 6, 0
Cc1ccc(-c2ccc(C3[C@@H]4CN(S(=O)(=O)c5ccc(C)cc5)C[C@H]3N4)cc2)cc1 (stereo not given in full)
→ nt, nt, -2, 74*, nt, 0
C[C@@H]1CN([C@@H](C)CO)C(=O)c2cc(C#Cc3cccnc3)cnc2O[C@H]1CN(C)C(=O)CN(C)C
→ 7, -8, -5, 6, -4, 1
Cc1cccc(S(=O)(=O)N2C[C@@H]3N[C@H](C2)C3c2ccc(-c3ccccc3C)cc2)c1 (stereo not given in full)
→ nt, nt, nt, nt, nt, 0
CN(C)C(=O)c1ccc(-c2ccc(C3[C@@H]4CN(S(=O)(=O)c5ccc(F)cc5)C[C@H]3N4)cc2)cc1 (stereo not given in full)
→ nt, nt, -4, 5, 0, 0
O=S(=O)(c1ccc(F)cc1)N1C[C@@H]2N[C@H](C1)C2c1ccc(-c2ccc(F)cc2)cc1 (stereo not given in full)
→ nt, nt, -5, 87*!, 1, 0
Cc1cccc(S(=O)(=O)N2C[C@@H]3N[C@H](C2)C3c2ccc(-c3ccccc3F)cc2)c1 (stereo not given in full)
→ nt, nt, -1, 80*!, 2, 0
O=S(=O)(c1ccc(-c2ccccc2)cc1)N1C[C@@H]2N[C@H](C1)[C@@H]2c1ccc(-c2cccnc2)cc1
→ nt, nt, 2, 73*, 4, 0
O=C(C[C@@H]1C[C@@H]2c3cc(NC(=O)c4ccc5c(c4)OCO5)ccc3O[C@@H]2[C@@H](CO)O1)NCc1cccc(F)c1
→ 5, -7, -7, -9, -4, 0
C[C@@H]1CN([C@@H](C)CO)C(=O)c2cc(NS(C)(=O)=O)ccc2O[C@@H](C)CCCCO[C@@H]1CN(C)C(=O)NC1CCCCC1
→ 2, -6, nt, nt, nt, nt

Later entries:
Order of results: RAD54 inh, Yeast UUG start, MLL AF4-AF9 inh, RAD52 inh, SIRT5 block, E-selectin induc
O=C(/C=C/c1cccs1)Nc1scc(-c2ccccc2)c1C(=O)O
→ nt, nt, 27*, -22, 9, 0
O=C(/C=C/c1cccs1)Nc1nc(-c2ccccc2)cs1
→ -5, -4, nt, nt, nt, nt
Cc1cccc(CCNC(=O)Cc2ccc(NC3=NC4CS(=O)(=O)CC4S3)cc2)c1 (stereo not given)
→ 7, -9, 47*, -1, -4, 0
O=C(Cc1ccc(NC2=NC3CS(=O)(=O)CC3S2)cc1)NCCc1ccccc1 (stereo not given)
→ -9, -10, 2, -15, -5, 3
Cc1c(NC(=O)c2ccc(COc3ccc4ccccc4c3)o2)c(=O)n(-c2ccccc2)n1C
→ -5, -10, 3, -16, 0, nt
Cc1c(N(C)C(=O)COc2ccc3ccccc3c2)c(=O)n(-c2ccccc2)n1C
→ -13, -12, 2, -15, 1, 42*
C/C=C/c1ccc([C@H]2[C@H](CO)N[C@H]2CN(CC(C)C)C(=O)c2ccccn2)cc1
→ 2, -14, 7, -16, -2, 0
C/C=C/c1ccc([C@@H]2[C@@H](CO)N[C@@H]2CN(CC(C)C)C(=O)c2ccccn2)cc1
→ 2, -6, nt, -29, 18*, 0
COc1ccc(CN(C)C[C@H]2OCCCC[C@@H](C)Oc3ccc(N(C)C)cc3C(=O)N([C@H](C)CO)C[C@@H]2C)cc1
→ -5, 4, 9, 12, 2, 0
CC(C)Cc1ccc(C(C)C(N)=Nc2ccc(O)cc2)cc1 (stereo not given)
→ 3, -4, 4, -2, 19*, 0

A stretch from the list above, for reference:
Order of results: RAD54 inh, Yeast UUG start, MLL AF4-AF9 inh, RAD52 inh, SIRT5 block, E-selectin induc
C/C=C/c1ccc([C@@H]2[C@@H](CO)N[C@@H]2CN(CC(C)C)C(=O)c2ccccn2)cc1
→ 2, -6, nt, -29, 18*, 0
COc1ccc(CN(C)C[C@H]2OCCCC[C@@H](C)Oc3ccc(N(C)C)cc3C(=O)N([C@H](C)CO)C[C@@H]2C)cc1
→ -5, 4, 9, 12, 2, 0
CC(C)Cc1ccc(C(C)C(N)=Nc2ccc(O)cc2)cc1 (stereo not given)
→ 3, -4, 4, -2, 19*, 0

Other results
Order of results: RAD54 inh, Yeast UUG start, MLL AF4-AF9 inh, RAD52 inh, SIRT5 block, E-selectin induc
C[C@H](CO)N1C[C@H](C)[C@@H](CN(C)C(=O)Nc2ccc(F)cc2)Oc2c(NC(=O)C3CCCCC3)cccc2C1=O
→ -2, -8, -2, 3, -4, 0
CCC(=O)N1C[C@@H]2[C@H](c3ccccc31)[C@@H](CO)N2Cc1cc(F)ccc1F
→ 3, -10, 3, -5, 5, 1
CCC(=O)N1C[C@H]2[C@@H](c3ccccc31)[C@H](CO)N2Cc1cc(F)ccc1F
→ -3, -8, 4, -5, 16*, -1
COCC(=O)N1C[C@@H]2[C@H](c3ccccc31)[C@H](CO)N2Cc1cc(F)ccc1F
→ 4, -11, 0, -11, 20*, 0
CC(C)NC(=O)N(C)C[C@@H]1OCCCC[C@H](C)Oc2ccc(NC(=O)Nc3ccc(F)cc3)cc2C(=O)N([C@@H](C)CO)C[C@H]1C
→ -8, 6, -2, -9, -1, 1
CCN1CCN(C(c2ccc(C(F)(F)F)cc2)c2ccc3cccnc3c2O)CC1 (stereo not given)
→ 10, -28, 85*, 3, -6, 0
C[C@@H]1CN([C@H](C)CO)C(=O)c2cc(NC(=O)Cn3cnnn3)ccc2O[C@H]1CN(C)C(=O)Nc1cccc2ccccc12
→ 2, 0, -2, -9, 1, -8
C[C@H](CO)N1C[C@H](C)[C@@H](CN(C)C(=O)C2CCOCC2)Oc2ncc(C#CC(C)(C)O)cc2C1=O
→ -4, 0, 0, 9, -3, 0
COc1ccccc1NC(=O)CN1C(=O)COc2ccc(S(=O)(=O)N3CCCCCC3)cc21
→ 0, -15, 3, -7, -1, nt
COc1ccc(OC)c(NC(=O)CN2C(=O)COc3ccc(S(=O)(=O)N4CCCC4)cc32)c1
→ -5, 1, 35*, -2, -1, 1

(further entries)
Order of results: RAD54 inh, Yeast UUG start, MLL AF4-AF9 inh, RAD52 inh, SIRT5 block, E-selectin induc
CCCNC(=O)Nc1ccc2c(c1)OC[C@H](C)N(C(=O)C1CCCCC1)C[C@H](C)[C@@H](OC)CN(C)C2=O
→ nt, nt, -19, 15, 2, 0
C=CC[C@H](CC(=O)N(CCO)Cc1ccccc1)C(=O)N[C@@H](COC(=O)[C@H](CC=C)CC(=O)OC(C)(C)C)Cc1c[nH]c2ccccc12
→ -8, 5, 0, -8, 27*, 1
C=CC[C@@H](CC(=O)N(CCO)Cc1ccccc1)C(=O)N[C@H](COC(=O)[C@@H](CC=C)CC(=O)OC(C)(C)C)Cc1c[nH]c2ccccc12
→ -7, -9, -1, 3, nt, 0
C=CC[C@@H](CC(=O)N(CCO)Cc1ccccc1)C(=O)N[C@H](COC(=O)[C@@H](CC=C)CC(=O)OC(C)(C)C)c1ccccc1
→ -7, -23, 2, -12, 20*, 0
C=CC[C@H](CC(=O)N(CCO)Cc1ccccc1)C(=O)N[C@H](COC(=O)[C@H](CC=C)CC(=O)OC(C)(C)C)Cc1ccccc1
→ -16, -1, -1, -10, nt, 0
O=C(CC(F)(F)F)N1C[C@@H]2[C@H](c3ccccc31)[C@@H](CO)N2C(=O)Cc1cccnc1
→ -21, 22, -1, -45, -5, 0
CNC[C@@H]1Oc2ccc(NC(=O)CCCN(C)C)cc2CC(=O)N([C@H](C)CO)C[C@H]1C
→ nt, nt, 0, -10, -4, 2
